Target: T1, Caspase-3 (Homo sapiens, UniProt P42574)
T1 sequence (P42574 whole entry): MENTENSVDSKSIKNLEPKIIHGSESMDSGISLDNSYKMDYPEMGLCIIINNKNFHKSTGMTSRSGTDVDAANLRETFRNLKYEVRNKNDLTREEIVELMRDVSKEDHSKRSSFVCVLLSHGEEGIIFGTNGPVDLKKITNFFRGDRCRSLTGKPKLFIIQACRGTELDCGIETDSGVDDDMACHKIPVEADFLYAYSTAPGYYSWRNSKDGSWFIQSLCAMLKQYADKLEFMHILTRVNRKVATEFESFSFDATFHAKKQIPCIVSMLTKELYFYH
Test: Inhibitory concentration of compound against caspase-3

- IC50: 43.9 nM
Compound: CC(=O)N[C@@H](CC(=O)O)C(=O)N[C@@H](CCC(=O)O)C(=O)N[C@H](C(=O)N[C@H](C=O)CC(=O)O)C(C)C

Source: ChEMBL document CHEMBL1148306, “Reducing the peptidyl features of caspase-3 inhibitors: a structural analysis” (J Med Chem, 2004)
